The test system of assay [1] is chick dorsal root ganglia (DRG) explants. The assay is described as follows: Chick dorsal root ganglion cultures and neurite outgrowth. In kind it is cell-based. Conditions: drug alone; chick embryo DRG explants, 48 hours after drug treatment.
For another assay, the target named is FKBP (Homo sapiens, UniProt P62942). The assay is described as follows: Ki test procedure: inhibition of peptidyl-prolyl isomerase (rotamase) activity, chymotrypsin-coupled assay. In kind it is biochemical. Conditions: apparent Ki, substrate N-succinyl-Ala-Phe-Pro-Phe-p-nitroanilide, Table I.

Protein sequences, listed by entry. Tags and fused reporters are not part of them.
UniProt P62942, whole entry: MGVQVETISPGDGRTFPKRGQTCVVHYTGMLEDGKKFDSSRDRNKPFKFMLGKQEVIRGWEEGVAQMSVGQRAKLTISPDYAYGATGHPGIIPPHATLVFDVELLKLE

The values that follow come from patent US7056935B2, “Rotamase enzyme activity inhibitors” (GPI NIL Holdings, Inc., priority 1995, dated 2006).

Bounds are passed on as bounds.

Turning to `CC(C)Oc1cccc(C(=O)C(=O)N2CCCC[C@H]2C(=O)OC(CCCc2ccccc2)CCCc2cccnc2)c1` (some centres unmarked), the “ED50, nM Neurite Outgrowth in DRG Cultures” value (“ED50, nM Neurite Outgrowth” for short) in assay [1] is reported as 0.30 nM. On to `O=C(C(=O)N1CCCC[C@H]1C(=O)OC(CCCc1ccccc1)CCCc1ccccn1)c1ccccc1` (some centres unmarked), for which the “ED50, nM Neurite Outgrowth” value in assay [1] amounted to 0.063 nM. On the same count and under the same terms, next, `COc1cc(C(=O)C(=O)N2CCCC[C@H]2C(=O)OCCCCC2CCCCC2)cc(OC)c1OC`: 0.031 nM. Same read-out and setting: next, `COc1ccc(CCC(CCCc2ccccc2)OC(=O)[C@@H]2CCCCN2C(=O)C(=O)c2ccccc2)cc1` (some centres unmarked): 10 to 20 nM. On to `O=C(C(=O)N1CCCC[C@H]1C(=O)OCc1ccccc1)c1ccco1`, for which the Ki at FKBP came out at 3000 nM. Also, in assay [1], the “ED50, nM Neurite Outgrowth” value stood at 1000 nM. Turning to `O=C(C(=O)N1CCCC[C@H]1C(=O)OCCCCC1CCCCC1)c1ccccc1`, the Ki on FKBP amounted to 400 nM. In addition, the “ED50, nM Neurite Outgrowth” value in assay [1] lay within 10 to 20 nM. `COc1cc(C(=O)C(=O)N2CCCC[C@H]2C(=O)OCCCc2c[nH]c3ccccc23)cc(OC)c1OC`: the “ED50, nM Neurite Outgrowth” value in assay [1] is on record as 0.055 nM. On the same count and under the same terms, for `O=C(C(=O)N1CCCC[C@H]1C(=O)OC(CCCc1ccccc1)CCCc1cccnc1)c1ccccc1` (some centres unmarked) the value was 1 to 5 nM; for `COC(=O)C(=O)N1CCCC[C@H]1C(=O)OCCCC1CCCC1`, >10,000 nM. As to `COC(=O)C(=O)N1CCCC[C@H]1C(=O)OCCCC1CCCCC1`, the Ki on FKBP turned out to be 20000 nM. Moreover, in assay [1], the “ED50, nM Neurite Outgrowth” value is listed as >10,000 nM. As for `COC(=O)C(=O)N1CCCC[C@H]1C(=O)OCCCCC1CCCCC1`, the “ED50, nM Neurite Outgrowth” value in assay [1] is on record as >10,000 nM.
